Two molecules from PubChem BioAssay (Tox21) can be followed below.

Protein sequences, listed by entry. Tags and fused reporters are not part of them.
UniProt P04150, whole entry: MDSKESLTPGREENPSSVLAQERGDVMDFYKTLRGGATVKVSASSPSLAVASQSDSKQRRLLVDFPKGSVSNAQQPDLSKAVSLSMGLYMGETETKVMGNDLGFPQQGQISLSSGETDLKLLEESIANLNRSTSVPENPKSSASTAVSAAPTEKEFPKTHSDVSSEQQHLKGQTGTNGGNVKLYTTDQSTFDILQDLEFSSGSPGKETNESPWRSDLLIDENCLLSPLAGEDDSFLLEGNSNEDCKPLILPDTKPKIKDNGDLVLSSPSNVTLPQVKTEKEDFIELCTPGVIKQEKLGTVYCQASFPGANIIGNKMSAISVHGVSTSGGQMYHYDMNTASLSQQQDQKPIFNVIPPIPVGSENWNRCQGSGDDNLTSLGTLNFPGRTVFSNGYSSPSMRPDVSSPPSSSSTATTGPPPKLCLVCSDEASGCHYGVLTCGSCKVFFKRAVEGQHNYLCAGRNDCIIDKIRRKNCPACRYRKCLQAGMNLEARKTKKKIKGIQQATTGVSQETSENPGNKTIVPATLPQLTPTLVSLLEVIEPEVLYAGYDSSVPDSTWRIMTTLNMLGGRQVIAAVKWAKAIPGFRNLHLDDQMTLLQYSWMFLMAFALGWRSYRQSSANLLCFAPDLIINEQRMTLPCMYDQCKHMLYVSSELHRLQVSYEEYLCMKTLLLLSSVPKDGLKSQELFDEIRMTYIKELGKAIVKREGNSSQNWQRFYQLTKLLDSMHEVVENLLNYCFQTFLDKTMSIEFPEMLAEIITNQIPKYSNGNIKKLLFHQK

Each structure is given as a SMILES string. “And” between values parts separate entries of the source, which are not always exact repeats. Equal entries are not always repeated. Only a part is listed here, and it is no random draw. Inconclusive results are not listed. The source made the active and inactive calls. Unless noted, the call rests on the fitted dose curve; in most records, active means well fitted curve in the direction sought with a large enough effect in the repeat runs; inconclusive means weak or mixed curves; inactive means no such curve, though single readings can be large; an effect the other way counts as inactive or inconclusive.

Experiment [1] can be described thus: qHTS assay for small molecules that induce genotoxicity in human embryonic kidney cells expressing luciferase-tagged ATAD5 (AID 651632). Further: on the % scale 0 is the no-effect control and ±100 the full control effect; nearly all actives have a fitted effect of over 15% in size. The settings on record: HEK293T ATAD5-luciferase induction, 16 h; at 83.3 µM (top of the series). In short, it runs like this: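 DMSO vehicle served as the control. HEK293T reporter cells, 16 hr at 37C, then 30 min Amplite at room temperature; ATAD5 induction is measured as luciferase activity.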
Background: Quantitative high-throughput screening tests each substance at several concentrations.

Experiment [2] can be described thus: qHTS assay for small molecule agonists of the p53 signaling pathway - cell viability (AID 651633; calls by dose curve;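 further: p53RE-bla HCT reporter cells with a stable beta-lactamase p53 reporter; on the % scale 0 is the no-effect control and ±100 the full control effect; nearly all actives have a fitted effect of over 30% in size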). The settings on record: p53RE-bla HCT-116 viability, ATP luminescence, 16 h; at 83.3 µM (top of the series). In short, it runs like this: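 p53RE-bla cells, seeded at 4,000 per well and rested 5 h at 37 C/5% CO2, received compounds in DMSO for 16 h at 37 C. CellTiter-Glo was then added, and luminescence was read after 30 min at room temperature to gauge cytotoxicity.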

Experiment [3] in a line: qHTS assay for small molecules that induce genotoxicity in human embryonic kidney cells expressing luciferase-tagged ATAD5 - cell viability (AID 651634; calls by dose curve; further: on the % scale 0 is the no-effect control and ±100 the full control effect; nearly all actives have a fitted effect of over 25% in size). The settings on record: HEK293T ATAD5-luc cells viability, CellTiter-Fluor, 15.5 h; at 83.3 µM (top of the series). In short, it runs like this:
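Here HEK293T cells with the ATAD5 luciferase reporter are incubated with test compounds for 15.5 hr, and cytotoxicity is then gauged by measuring protease activity in live cells using fluorescence.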

A short description of experiment [4]: qHTS assay for small molecule disruptors of the mitochondrial membrane potential - cell viability (AID 720634; calls by dose curve;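 further: human HepG2 liver cancer cells; on the % scale 0 is the no-effect control and ±100 the full control effect; nearly all actives have a fitted effect of over 20% in size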). The settings on record: HepG2 viability, ATP luminescence (CellTiter-Glo), 1 h; at 83.2 µM (top of the series). The method in brief:
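Viability of HepG2 cells is scored from ATP content by luminescence; cells are exposed to compound for 1 hr at 37 C and 5% CO2, then dosed with m-MPI dye before the CellTiter-Glo reagent.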

A short description of experiment [5]: qHTS assay for small molecule disruptors of the mitochondrial membrane potential (AID 720635). Further: on the % scale 0 is the no-effect control and ±100 the full control effect. The settings on record: HepG2 mitochondrial membrane potential, Mito-MPS dye ratio; at 83.2 µM (top of the series). The method in brief: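 HepG2 cells (2,000/well) attached overnight at 37C, then took compound for 1 hr at 37C, 5% CO2. Mito-MPS dye was added for 30 min; fluorescence was read at 490/535 nm (monomers) and 540/590 nm (aggregates).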

Experiment [6] can be described thus: qHTS assay to test for compound auto fluorescence at 590 nm (red) in HepG2 cells (AID 720674). Further: on the % scale 0 is the no-effect control and ±100 the full control effect. The settings on record: HepG2 autofluorescence, red 540/590 nm, 1 h. The method in brief:
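Intrinsic compound fluorescence in the red window (Ex/Em 540/590 nm) is measured in attached HepG2 cells exposed for 1 hr, DMSO vehicle as baseline, benchmarked to Rose Bengal sodium.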

Experiment [7] is described as follows: qHTS assay to test for compound auto fluorescence at 535 nm (green) in HepG2 cells (AID 720675). Further: on the % scale 0 is the no-effect control and ±100 the full control effect. The settings on record: green autofluorescence 485/535 nm, 1 h.
Experiment [8] can be described thus: qHTS assay to test for compound auto fluorescence at 460 nm (blue) in HEK293 cells (AID 720678). Further: on the % scale 0 is the no-effect control and ±100 the full control effect. The settings on record: blue autofluorescence 405/460 nm. The method in brief:
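Blue-channel (Ex/Em 405/460 nm) intensity measured in HEK293 cultures after overnight compound exposure at 37C; signal expressed relative to triamterene. Cells plated 2,000 per well in 10% dialyzed FBS medium and allowed 4-5 hr to attach.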

A short description of experiment [9]: qHTS assay to test for compound auto fluorescence at 590 nm (red) in HEK293 cells (AID 720679). Further: on the % scale 0 is the no-effect control and ±100 the full control effect. The settings on record: red autofluorescence 540/590 nm. The method in brief:
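Red-channel autofluorescence (Ex/Em 540/590 nm; Rose Bengal sodium reference) was measured after overnight 37C, 5% CO2 exposure of attached HEK293 cells, 2,000 per well in medium with 10% dialyzed FBS.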

The nature of experiment [10]: qHTS assay to test for compound auto fluorescence at 535 nm (green) in HEK293 cells (AID 720680). Further: on the % scale 0 is the no-effect control and ±100 the full control effect. The settings on record: green autofluorescence 485/535 nm.
Experiment [11] in a line: qHTS assay to test for compound auto fluorescence at 460 nm (blue) in HEK293 cell free culture (AID 720681). Further: on the % scale 0 is the no-effect control and ±100 the full control effect. The settings on record: cell-free medium, autofluorescence 405/460 nm (blue). The method in brief:
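Test compounds were pinned into cell-free culture medium (DMEM with 10% FBS) and fluorescence was read directly at Ex/Em 405/460 nm. Signals were expressed as fluorescence equivalents of triamterene, with DMSO vehicle as control.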

A short description of experiment [12]: qHTS assay to test for compound auto fluorescence at 535 nm (green) in HEK293 cell free culture (AID 720682). Further: on the % scale 0 is the no-effect control and ±100 the full control effect. The settings on record: cell-free medium, green autofluorescence 485/535 nm, stronger effect = higher value. The method in brief: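 Each library compound, or DMSO control, is added by pintool to medium alone, comprising DMEM and 10% FBS. Emission at 535 nm following 485 nm excitation is quantified against fluorescein.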

Experiment [13] is described as follows: qHTS assay to test for compound auto fluorescence at 590 nm (red) in HEK293 cell free culture (AID 720683). Further: on the % scale 0 is the no-effect control and ±100 the full control effect. The settings on record: cell-free medium autofluorescence, Ex540/Em590 red. The method in brief:
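Tox21 10K library compounds were pinned into cell-free DMEM with 10% FBS and fluorescence was read at excitation 540 nm. Activity is expressed as Rose Bengal sodium equivalency.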

A short description of experiment [14]: qHTS assay to test for compound auto fluorescence at 590 nm (red) in HepG2 cell free culture (AID 720684). Further: on the % scale 0 is the no-effect control and ±100 the full control effect. The settings on record: cell-free medium autofluorescence, red 540/590 nm. In short, it runs like this: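 Readout: intrinsic compound fluorescence at 590 nm emission after 540 nm excitation, scaled to Rose Bengal sodium. Matrix was cell-free MEM with 10% FBS; DMSO vehicle wells served as control.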

A short description of experiment [15]: qHTS assay to test for compound auto fluorescence at 460 nm (blue) in HepG2 cell free culture (AID 720685). Further: on the % scale 0 is the no-effect control and ±100 the full control effect. The settings on record: Cell-free culture medium, blue autofluorescence 405/460 nm. The method in brief:
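Cell-free plates of MEM plus 10% FBS received 23 nL compound or DMSO vehicle; blue-channel (405/460 nm) intensity scored against triamterene as reference fluorophore.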

Experiment [16] is described as follows: qHTS assay to test for compound auto fluorescence at 535 nm (green) in HepG2 cell free culture (AID 720686). Further: on the % scale 0 is the no-effect control and ±100 the full control effect. The settings on record: Cell-free medium, green autofluorescence 485/535 nm.
The nature of experiment [17]: qHTS assay to test for compound auto fluorescence at 460 nm (blue) in HepG2 cells (AID 720687). Further: on the % scale 0 is the no-effect control and ±100 the full control effect. The settings on record: autofluorescence 405/460 nm, 1 h. The method in brief:
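Cells (2,000/well in MEM with 10% FBS) attached overnight at 37 C, then were exposed to compound or DMSO for 1 hr at 37 C, 5% CO2. Fluorescence read at Ex/Em 405/460 nm, expressed as triamterene-equivalent signal.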

A short description of experiment [18]: qHTS assay for small molecule agonists of the p53 signaling pathway (AID 651631; calls by dose curve; further: potency means the concentration at half of the fitted maximal effect; nearly all actives have a fitted effect of over 15% in size). In short, it runs like this:
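Beta-lactamase reporter activity under p53 response elements was quantified in HCT-116 cells by FRET fluorescence, following 16 h incubation with test compounds at 37 °C and 2 h substrate development at room temperature.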

The target of experiment [19] is Glucocorticoid receptor (Homo sapiens) (UniProt P04150). Nature of the experiment: qHTS assay to identify small molecule agonists of the glucocorticoid receptor (GR) signaling pathway (AID 720691; active means well fitted activation curve with a large enough effect in the signal ratio in the repeat runs, not every such curve was filed as active; the % refers to the signal ratio; further: on the % scale 0 is the no-effect control and ±100 the full control effect). The settings on record: GR-bla HeLa, beta-lactamase reporter ratio, 18 h; at 62.4 µM (top of the series).

For `CCC(=O)N(c1ccccc1)C1(COC)CCN(CCn2nnn(CC)c2=O)CC1`, the activation in experiment [1] is inactive: 2.5%. The values for the activity change, negative = cytotoxicity in experiment [2] and in experiment [4] were inactive: -19.4% and inactive: -8.53%, respectively. Besides, the activity, negative = cytotoxicity in experiment [3] is inactive: 6.92%. In addition, the ratio activity, negative = MMP loss in [5] was inactive: 10.4%. The fluorescence, relative to Rose Bengal in experiment [6] (at 91.3 µM (top of the series)) is inactive: -0.107%. For the same molecule, the fluorescence, % of fluorescein control in experiment [7] (at 91.3 µM (top of the series)) is inactive: 0.0746%; in experiment [16] (at 91.3 µM (top of the series)), inactive: 0.0168%. In addition, the fluorescence, % of triamterene in experiment [8] (at 91.3 µM (top of the series)) is inactive: 0.0276%. Besides, the fluorescence, % of fluorescent control in experiment [9] (at 91.3 µM (top of the series)) was inactive: -0.189%; in experiment [11] (at 91.3 µM (top of the series)) it was inactive: -0.159%; in experiment [13] (at 91.3 µM (top of the series)), inactive: -0.471%; in experiment [15] (at 91.3 µM (top of the series)), inactive: 0.0163%; in experiment [17] (at 91.3 µM (top of the series)), inactive: -0.195%. The fluorescence, % of fluorescein in experiment [10] (at 91.3 µM (top of the series)) was inactive: 0.0123%. The activity change in experiment [12] (at 91.3 µM (top of the series)) is inactive: 0.0459%. In addition, in experiment [14] (at 91.3 µM (top of the series)), the fluorescence, % of Rose Bengal was inactive: -0.0772%.

As for `CN(CCCl)CCCl`, in experiment [18], the Potency is active: 8.41 µM and active: 15.3 µM. The activity change, negative = cytotoxicity in [4] is inactive: 8.29% and inactive: 47.7%. Further, the figures for the fluorescence, relative to Rose Bengal in experiment [6] (at 46 µM (top of the series)) and in [6] (at 91.3 µM (top of the series)) were inactive: -0.0271% and inactive: 0.201%, respectively. Moreover, the fluorescence, % of fluorescein control was inactive: -0.067% in experiment [7] (at 46 µM (top of the series)), inactive: -0.0327% in experiment [7] (at 91.3 µM (top of the series)), inactive: -0.0627% in experiment [16] (at 46 µM (top of the series)) and inactive: -0.0098% in experiment [16] (at 91.3 µM (top of the series)). Besides, the fluorescence, % of triamterene in experiment [8] (at 46 µM (top of the series)) is inactive: -0.208%; in experiment [8] (at 91.3 µM (top of the series)), inactive: -0.0642%. Moreover, the fluorescence, % of fluorescent control was inactive: -0.587% in experiment [9] (at 46 µM (top of the series)); inactive: 0.487% in experiment [9] (at 91.3 µM (top of the series)); inactive: -0.0378% in experiment [11] (at 46 µM (top of the series)); inactive: -0.0763% in [11] (at 91.3 µM (top of the series)); inactive: -0.337% in experiment [13] (at 46 µM (top of the series)); inactive: -0.451% in experiment [13] (at 91.3 µM (top of the series)). Further, the fluorescence, % of fluorescent control is inactive: -0.005% in experiment [15] (at 46 µM (top of the series)), inactive: -0.0814% in experiment [15] (at 91.3 µM (top of the series)), inactive: -0.2% in experiment [17] (at 46 µM (top of the series)) and inactive: 0.0122% in experiment [17] (at 91.3 µM (top of the series)). Besides, the fluorescence, % of fluorescein in experiment [10] (at 46 µM (top of the series)) was inactive: -0.0555%; in experiment [10] (at 91.3 µM (top of the series)), inactive: 0.008%. For the same molecule, the activity change is inactive: 0.0802% in experiment [12] (at 46 µM (top of the series)) and inactive: -0.127% in experiment [12] (at 91.3 µM (top of the series)). Also, the fluorescence, % of Rose Bengal in experiment [14] (at 46 µM (top of the series)) was inactive: -0.308%; in [14] (at 91.3 µM (top of the series)), inactive: -0.476%. Moreover, in experiment [19], the activation was inactive: -8.45%.
